Data: US20090053168A1, “TREATMENTS OF B-CELL PROLIFERATIVE DISORDERS” (priority 2007, published 2009)

Tested on: MM.1R cells
Assay: Anti-proliferation assay (ATPLite, 72 h), MM.1R
Assay type: cell-based
Conditions: in combination with HE-NECA

O=C1C2CC=CCC2C(=O)N1SC(Cl)(Cl)C(Cl)Cl (stereo not shown)
Synergy Score: 1.37
